## Antibody variant affinities, Ab-14 light chain, assay B

Data: MIT Lincoln Laboratory AlphaSeq set, Li et al. 2023, doi:10.1038/s41467-023-39022-2, as distributed in FLAb.

Antigen: PDVDLGDISGINAS, a 14-residue peptide of the SARS-CoV-2 spike HR2 region.

Parent: Ab-14, a human scFv built as VH, a 15-residue (Gly4Ser)3 linker, VL. Only the CDRs of the light chain vary.
VH: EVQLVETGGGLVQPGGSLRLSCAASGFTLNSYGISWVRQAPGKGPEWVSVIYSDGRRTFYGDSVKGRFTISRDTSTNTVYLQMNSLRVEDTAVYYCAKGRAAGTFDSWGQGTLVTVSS
VL: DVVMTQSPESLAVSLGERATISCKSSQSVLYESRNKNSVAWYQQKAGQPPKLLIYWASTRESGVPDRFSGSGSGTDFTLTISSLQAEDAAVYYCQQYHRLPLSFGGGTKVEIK

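The starting antibody came from a phage panning campaign against this peptide. The variants were designed computationally from a first round of random CDR variants and then made and measured. Group labels follow the data file (En: ensemble of fine-tuned language models; GP: Gaussian process model; HC: hill climbing; Gen: genetic algorithm; Gibbs: Gibbs sampling; a sequence that several methods proposed may carry one label only). The scFvs were displayed on barcoded MATa yeast, the peptide on MATalpha yeast. Mating (16 h, 30 °C) was followed by selection of diploids and sequencing of their barcodes. Scores were corrected for input abundance and mapped to Kd with protein pairs of known affinity run in the same pool. Each pool was mated in six replicate cultures.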

Variants are written as CDR1, CDR2 and CDR3 of the light chain (limits as in the source). Parent: KSSQSVLYESRNKNSVA, WASTRES, QQYHRLPLS. Variants here have more than six changes. The read-out is the apparent dissociation constant on a log10 scale (nM): the lower, the stronger. Replicates are averaged; those with no signal do not enter the mean. "n.d." marks a missing value. The strain was present, yet no cells mated with the target were sequenced in that replicate, which points to weak or no binding.

CDR-L1	CDR-L2	CDR-L3	group	log10 Kd (nM) by replicate	log10 Kd (nM), mean	empty controls
HLSANMWMESSMWDAVA	QGDIAMN	QDYSRLPLS	En_Gibbs	2.31 2.44 1.51 3.53 2.52 2.00	2.38	0 of 18
KLTEAMASWTGARHNIA	DRTVTAP	QQYSRLPIT	En_Gibbs	-0.01 0.38 0.16 -0.08 0.21 0.31	0.16	2 of 18 (2.61)
KLGAATRFESSNKASIA	DNSTREE	QQYHRLPLS	En_HC	0.61 0.95 0.48 0.42 0.37 0.44	0.55	0 of 18
KLMHYKHGGDGTRNSVA	EMTIREY	QQYFHLPLN	En_Gibbs	n.d. 1.65 0.19 n.d. 0.31 1.10	0.81	0 of 18
KIAATVLYESGAANSVA	QNSTREE	QQYHRLPLS	En_HC	1.55 1.65 1.65 0.96 2.30 2.30	1.74	0 of 18
TISQSFLMENQFKNSVA	QASTRIS	QCYDRLPLS	En_HC	n.d. 2.11 n.d. 2.49 n.d. 2.09	2.23	0 of 18
HMSMLTLQGMRHRNSVA	QMTTRVN	QQYDRLPLS	En_Gen	n.d. 0.84 0.85 1.98 1.09 1.21	1.20	0 of 18
KIGMTLNMMMHKKNNVA	DLVERED	QQYHRLPLS	En_Gen	n.d. n.d. n.d. n.d. n.d. n.d.	n.d.	0 of 18
KIYGMQGMLTRQANSIA	DNTTRGN	QQYHRLPLS	En_Gen	2.54 2.20 1.87 1.68 1.76 2.66	2.12	0 of 18
MISQLYNMGQFAINSVA	QASIRNA	QQYDRLPLI	En_Gen	n.d. 1.95 1.84 1.07 n.d. 1.29	1.54	1 of 18 (1.05)
TLAQGIYEPVRKSNNIA	EASHVGD	QQYERLPLE	En_Gibbs	1.12 0.80 0.72 0.83 1.06 1.09	0.94	2 of 18 (2.05)
AVSIEHKENTAIWNAIA	DTSLRNN	QQYYQLPLS	En_Gibbs	0.78 1.85 1.59 1.60 1.06 1.74	1.44	1 of 18 (2.83)
VGDESYQQGVHEMNNIA	NGDQKVD	QQYYRLPLL	En_Gibbs	0.49 0.33 0.11 0.35 1.17 0.59	0.51	1 of 18 (2.67)
KVSILDDGGDRNKNSVA	HASTRES	QQYHRLPLS	GP_Gibbs	0.23 0.28 0.45 0.06 0.13 0.39	0.26	0 of 18
TISQSTYWENFNKNSVA	QTSTREE	QDYDRLPLS	En_HC	n.d. n.d. n.d. n.d. n.d. n.d.	n.d.	1 of 18 (2.43)
KITATMRFEQMKKNNIA	EVSMRTK	QQYFRLPLA	En_Gen	1.77 1.77 2.27 2.43 1.27 1.43	1.83	0 of 18
KYSFSVLEESRNSNAVA	NASTREE	QDYHRLPLS	GP_Gibbs	1.13 1.17 1.70 1.37 2.10 1.51	1.50	0 of 18
KLSMSWEYESRNSNSVA	HASTREN	QQYHRLPLA	GP_Gibbs	0.25 0.13 -0.07 0.13 0.46 0.22	0.19	0 of 18
MMSQVTGQGQRHRNNVA	QTSEREA	QQYDRLPLI	En_Gen	0.30 0.50 0.38 -0.04 0.11 0.30	0.26	2 of 18 (3.54)
RIDPYEAMAGKNKESIA	EAAVTLT	QQYARLPLS	En_Gibbs	0.75 0.83 0.69 0.17 0.30 0.63	0.56	0 of 18
KLYDEATNRVGTATNIA	EKEISLQ	QQYDRLPLS	En_Gibbs	2.41 1.50 1.74 0.92 1.30 1.53	1.57	0 of 18
HISQSVAMTSRNKNSVA	ENSTRED	QQYDRLPLS	En_HC	n.d. 1.80 1.65 1.78 2.02 1.74	1.80	0 of 18
MIHEVMGLVSHKQSSIA	DNSTRED	QQYDRLPLS	En_Gen	n.d. n.d. n.d. n.d. n.d. n.d.	n.d.	0 of 18
HIELGTWGVQKYDSSVA	HASQRQE	QQYYQLPLT	En_Gibbs	0.03 0.02 0.20 0.23 0.05 0.62	0.19	0 of 18
KVSSAFLYEDRNKNSVA	QASQRES	QQYHRLPLS	GP_Gibbs	0.01 -0.15 -0.25 -0.19 -0.08 -0.08	-0.12	3 of 18 (3.24)
TVSQVHGMLTHNTNSVA	DMNTRGS	QQYDRLPLS	En_HC	-0.13 0.24 0.21 0.04 -0.14 0.32	0.09	1 of 18 (3.50)
KLKEWKVDNQTFYSNIA	EADIREL	QQYYRLPLQ	En_Gibbs	2.50 1.40 n.d. 1.59 2.09 3.70	2.26	1 of 18 (3.06)
QLLYATMQGTYNRNSVA	HAETRED	QSYHRLPLS	En_HC	2.56 n.d. 1.41 n.d. 3.65 n.d.	2.54	0 of 18
KLGMTLNQMVEKKNNVA	DLVEREN	QQYHRLPLS	En_Gen	0.72 0.38 0.08 0.46 0.56 0.42	0.44	0 of 18
MLSDLVKMGHRNTNSVA	DNSTRGS	QQYDRLPLS	En_HC	1.60 1.77 1.87 2.12 2.06 2.06	1.91	3 of 18 (2.69)
KLANVTGTEKVRGNNVA	EMETRER	QQYNRLPLS	En_Gen	0.70 0.60 0.68 0.74 0.57 0.73	0.67	1 of 18 (2.43)
NVGQSMDGEIRNKNSVA	HQSTRED	QHYHRLPLS	En_HC	0.97 1.02 0.93 0.75 1.11 0.65	0.90	1 of 18 (2.87)
KLEQSWEYESRNSNNVA	AASTRSD	QQYHRLPLS	GP_Gibbs	-0.37 -0.27 -0.16 -0.29 -0.04 -0.18	-0.22	0 of 18
KLRMVTGYESRNKDSIA	DNSTRGR	QQYHRLPLS	En_HC	1.36 1.02 1.29 0.90 1.22 1.43	1.20	3 of 18 (2.45)
SLSMFMDNYNQKYDSVA	DTANIDI	QQYDRLPLS	En_Gibbs	n.d. n.d. n.d. n.d. n.d. n.d.	n.d.	0 of 18
KINGVLINFGEDMNAIA	QENLSNL	QQYFHLPLS	En_Gibbs	n.d. n.d. n.d. n.d. n.d. n.d.	n.d.	0 of 18
KLDEKNRWNGMANKNVA	ASNTRVD	QQYHRLPLI	En_Gibbs	0.54 0.42 0.16 0.47 0.21 0.45	0.37	2 of 18 (2.42)
MIAQGLRGVGRNKNSVA	NAQTRYS	QHYHRLPLS	En_HC	n.d. n.d. n.d. n.d. n.d. n.d.	n.d.	1 of 18 (1.92)
QLSLMENEMDDRMWSVA	DANQAKT	QDYHRLPLM	En_Gibbs	n.d. n.d. 1.68 n.d. n.d. n.d.	1.68	1 of 18 (1.78)
KLSLVLGVSKQVEKNIA	NTRLKVA	QQYDRLPLT	En_Gibbs	0.85 0.77 0.65 1.05 0.70 0.93	0.83	1 of 18 (2.78)
NLGFEDANDNRGMMAVA	DVNTVGE	QQYNRLPLA	En_Gibbs	n.d. 0.10 n.d. 1.16 n.d. 1.05	0.77	0 of 18

The opening 5 entries, copied out:

CDR-L1	CDR-L2	CDR-L3	group	log10 Kd (nM) by replicate	log10 Kd (nM), mean	empty controls
HLSANMWMESSMWDAVA	QGDIAMN	QDYSRLPLS	En_Gibbs	2.31 2.44 1.51 3.53 2.52 2.00	2.38	0 of 18
KLTEAMASWTGARHNIA	DRTVTAP	QQYSRLPIT	En_Gibbs	-0.01 0.38 0.16 -0.08 0.21 0.31	0.16	2 of 18 (2.61)
KLGAATRFESSNKASIA	DNSTREE	QQYHRLPLS	En_HC	0.61 0.95 0.48 0.42 0.37 0.44	0.55	0 of 18
KLMHYKHGGDGTRNSVA	EMTIREY	QQYFHLPLN	En_Gibbs	n.d. 1.65 0.19 n.d. 0.31 1.10	0.81	0 of 18
KIAATVLYESGAANSVA	QNSTREE	QQYHRLPLS	En_HC	1.55 1.65 1.65 0.96 2.30 2.30	1.74	0 of 18

Background: pairings of all light chain designs with three empty control strains gave a value in 4% of cases (median 2.64, 5th percentile 1.59). Values in that range, when seen in few replicates, are hard to tell from nonspecific mating. The control count says in how many pairings with the empty strains this scFv gave a signal, with their mean in brackets. In the paper, a design with two or fewer of six values counts as a poor binder. A sequence measured in both rounds can read differently, since the two assays cover different ranges. The parent sequence was in this pool as ten entries: three were never detected, three once, and four in most replicates, with averages from 0.34 to 2.37.